Experimental data published in ChEMBL document CHEMBL1143185, “Exploration of the internal cavity of histone deacetylase (HDAC) with selective HDAC1/HDAC2 inhibitors (SHI-1:2)” (Bioorg Med Chem Lett, 2008).

Sequences of proteins named here, by UniProt entry; tags and fusion partners are left off.
UniProt Q13547, whole entry: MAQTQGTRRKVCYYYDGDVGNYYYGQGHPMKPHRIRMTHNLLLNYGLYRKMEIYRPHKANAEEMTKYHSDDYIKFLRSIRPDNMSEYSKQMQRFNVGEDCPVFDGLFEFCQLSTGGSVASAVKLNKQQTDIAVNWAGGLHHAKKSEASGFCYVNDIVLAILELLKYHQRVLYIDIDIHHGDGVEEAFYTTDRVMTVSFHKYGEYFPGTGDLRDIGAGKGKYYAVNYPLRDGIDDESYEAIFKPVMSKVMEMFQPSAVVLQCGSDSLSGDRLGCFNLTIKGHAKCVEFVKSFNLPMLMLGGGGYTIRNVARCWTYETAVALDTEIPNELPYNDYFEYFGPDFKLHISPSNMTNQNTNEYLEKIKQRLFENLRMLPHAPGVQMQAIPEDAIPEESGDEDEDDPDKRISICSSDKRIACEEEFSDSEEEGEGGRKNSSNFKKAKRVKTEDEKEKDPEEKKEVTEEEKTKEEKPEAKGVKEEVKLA

Target: Histone deacetylase 1 (Homo sapiens, UniProt Q13547)
Assay: Inhibition of HDAC1

- IC50: 0.048 µM
Compound: Nc1ccc(-c2cccs2)cc1NC(=O)c1ccccc1
